What was measured:
[1] = target: glucagon receptor (Homo sapiens, UniProt P47871); assay: Functional assay, cAMP synthesis: luciferase reporter in HEK293 cells co-transfected with glucagon receptor
[2] = target: GLP-1 receptor (Homo sapiens, UniProt P43220); assay: Functional assay, cAMP synthesis: luciferase reporter in HEK293 cells co-transfected with GLP-1 receptor

Chains of the proteins cited; added tags and fusions are not shown. Residues count along the entry.
UniProt P47871, 26-477: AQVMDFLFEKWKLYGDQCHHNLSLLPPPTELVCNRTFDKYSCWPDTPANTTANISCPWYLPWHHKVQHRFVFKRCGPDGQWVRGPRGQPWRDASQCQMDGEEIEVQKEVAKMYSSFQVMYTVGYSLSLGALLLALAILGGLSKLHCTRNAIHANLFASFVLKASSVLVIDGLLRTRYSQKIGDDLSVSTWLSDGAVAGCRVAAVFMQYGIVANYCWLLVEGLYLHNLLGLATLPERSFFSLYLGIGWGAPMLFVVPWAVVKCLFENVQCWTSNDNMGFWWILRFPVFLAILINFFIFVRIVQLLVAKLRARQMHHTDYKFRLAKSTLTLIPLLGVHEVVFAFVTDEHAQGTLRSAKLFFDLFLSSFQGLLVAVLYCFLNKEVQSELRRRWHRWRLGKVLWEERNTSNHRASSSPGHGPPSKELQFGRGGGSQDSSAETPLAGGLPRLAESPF
UniProt P43220, 24-463, species assumed: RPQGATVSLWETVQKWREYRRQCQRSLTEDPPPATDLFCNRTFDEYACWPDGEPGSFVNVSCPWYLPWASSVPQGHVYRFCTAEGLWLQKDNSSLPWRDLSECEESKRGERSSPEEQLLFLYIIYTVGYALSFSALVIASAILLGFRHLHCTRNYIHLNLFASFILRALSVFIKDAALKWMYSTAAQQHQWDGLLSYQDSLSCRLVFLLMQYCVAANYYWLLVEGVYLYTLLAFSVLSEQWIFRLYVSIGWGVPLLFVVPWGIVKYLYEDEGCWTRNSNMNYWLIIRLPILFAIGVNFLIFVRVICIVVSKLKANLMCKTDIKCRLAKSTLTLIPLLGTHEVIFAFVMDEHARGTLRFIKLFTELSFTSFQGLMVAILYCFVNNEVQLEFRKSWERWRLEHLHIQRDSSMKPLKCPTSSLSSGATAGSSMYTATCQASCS

**Q.** How did the EC50 [1] turn out when CCCCCCCCCCCCCCCC(=O)N[C@@H](CCC(=O)NCCCC[C@H](NC(=O)[C@H](CC(N)=O)NC(=O)[C@H](CCSC)NC(=O)[C@H](CC(C)C)NC(=O)[C@H](Cc1c[nH]c2ccccc12)NC(=O)[C@H](CCC(N)=O)NC(=O)[C@@H](NC(=O)[C@H](Cc1ccccc1)NC(=O)[C@H](CC(=O)O)NC(=O)[C@@H]1CCCCNC(=O)CC[C@H](NC(=O)[C@H](CC(=O)O)NC(=O)[C@H](CC(C)C)NC(=O)[C@H](Cc2ccc(O)cc2)NC(=O)[C@H](CCCCN)NC(=O)[C@H](CO)NC(=O)[C@H](Cc2ccc(O)cc2)NC(=O)[C@H](CC(=O)O)NC(=O)[C@H](CO)NC(=O)[C@@H](NC(=O)[C@H](Cc2ccccc2)NC(=O)[C@@H](NC(=O)CNC(=O)[C@H](CCC(N)=O)NC(=O)[C@H](CO)NC(=O)C(C)(C)c2c[nH]cn2)[C@@H](C)O)[C@@H](C)O)C(=O)N[C@@H](CCCNC(=N)N)C(=O)N[C@@H](CCCNC(=N)N)C(=O)N[C@@H](C)C(=O)N1)C(C)C)C(N)=O)C(=O)O [compound 653] was run?
**A.** 0.107 nM

**Q.** What about the EC50 [2] of the same molecule?
**A.** 0.075 nM

**Q.** CCCCCCCCCCCCCCCC(=O)N[C@@H](CCC(=O)N[C@@H](CCC(=O)NCCCC[C@H](NC(=O)[C@H](CC(N)=O)NC(=O)[C@H](CCSC)NC(=O)[C@H](CC(C)C)NC(=O)[C@H](Cc1c[nH]c2ccccc12)NC(=O)[C@H](CCC(N)=O)NC(=O)[C@@H](NC(=O)[C@H](Cc1ccccc1)NC(=O)[C@H](CC(=O)O)NC(=O)[C@@H]1CCCCNC(=O)CC[C@H](NC(=O)[C@H](CC(=O)O)NC(=O)[C@H](CC(C)C)NC(=O)[C@H](Cc2ccc(O)cc2)NC(=O)[C@H](CCCCN)NC(=O)[C@H](CO)NC(=O)[C@H](Cc2ccc(O)cc2)NC(=O)[C@H](CC(=O)O)NC(=O)[C@H](CO)NC(=O)[C@@H](NC(=O)[C@H](Cc2ccccc2)NC(=O)[C@@H](NC(=O)CNC(=O)[C@H](CCC(N)=O)NC(=O)[C@H](CO)NC(=O)C(C)(C)c2c[nH]cn2)[C@@H](C)O)[C@@H](C)O)C(=O)N[C@@H](CCCNC(=N)N)C(=O)N[C@@H](CCCNC(=N)N)C(=O)N[C@@H](C)C(=O)N1)C(C)C)C(N)=O)C(=O)O)C(=O)O [compound 654] was tested. Which EC50 [1] did it give?
**A.** 0.025 nM

**Q.** What about the EC50 [2] of the same molecule?
**A.** 0.07 nM

— patent US8969294B2 (Istituto di Recerche di Biologia Molecolare P. Angeletti …, priority 2008, dated 2015)
